Here are results for one compound from ChEMBL document CHEMBL1125862, “(1S)-1-(aminomethyl)-2-(arylacetyl)-1,2,3,4-tetrahydroisoquinoline and heterocycle-condensed tetrahydropyridine derivatives: members of a novel class of very potent kappa opioid analgesics” (J Med Chem, 1991).

Amino acid sequences for entries named in this document (tags omitted). A change or cut given only in a name is not applied to a line headed by its entry.
UniProt P41144: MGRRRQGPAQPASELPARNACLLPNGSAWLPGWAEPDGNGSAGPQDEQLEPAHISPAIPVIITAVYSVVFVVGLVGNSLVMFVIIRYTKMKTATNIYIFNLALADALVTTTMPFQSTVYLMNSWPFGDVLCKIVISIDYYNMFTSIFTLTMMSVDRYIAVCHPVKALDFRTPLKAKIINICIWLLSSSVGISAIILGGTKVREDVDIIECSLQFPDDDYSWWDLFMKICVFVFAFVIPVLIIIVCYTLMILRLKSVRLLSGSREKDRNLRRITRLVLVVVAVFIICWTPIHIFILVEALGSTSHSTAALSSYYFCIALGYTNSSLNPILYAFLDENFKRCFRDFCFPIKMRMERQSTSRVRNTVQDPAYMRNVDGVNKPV

In experiment [1] the target is Kappa-type opioid receptor (Cavia porcellus, UniProt P41144). Kind of experiment: Displacement of [3H]-BRL 52537 from opioid receptor kappa site in guinea pig. For orientation: In a radioligand displacement assay an active substance lowers the binding of a labelled ligand.
For experiment [2], the system named is Mus musculus. The experiment can be described thus: Phenyl-p-benzoquinone-induced abdominal constriction after subcutaneous administration in mouse (in vivo). As to conditions: Abdomen.
Experiment [3] concerns Mus musculus. Kind of experiment: In vivo antinociceptive activity in mouse tail flick test following p.o. administration. On the technique in general: Thermal pain tests record how soon the animal reacts.
Experiment [4] concerns Mus musculus. The experiment can be described thus: In vivo antinociceptive activity using mouse tail flick test, subcutaneous administration.

As to `CN(C(=O)Cc1ccc(Cl)c(Cl)c1)C1CCCCC1N1CCCC1` (centres undefined), the Ki (commonly the equilibrium dissociation constant of an inhibitor or competing ligand from its target) in experiment [1] came to 2.2 nM. The median effective dose (ED50) (as a rule, the dose that gives a 50% effect, or the effect in half of the subjects) in experiment [2] came to 1.61 µmol/kg; in experiment [3], 29.1 µmol/kg; in experiment [4] it was 5.78 µmol/kg.
